Columns and labels:
[1] = Sulfating activity of human small intestine S9 fraction; details: 50 µM substrate, 20 min; ND = below detection limit ~0.1 pmol/min/mg protein
[2] = 50 µM substrate, 20 min; ND = below detection limit ~0.1 pmol/min/mg protein
[3] = Sulfating activity of human lung S9 fraction; details: 50 µM substrate, 20 min; ND = below detection limit ~0.1 pmol/min/mg protein
[4] = tested on: HepG2 human hepatoma cells
[5] = Sulfating activity of human kidney S9 fraction; details: 50 µM substrate, 20 min; ND = below detection limit ~0.1 pmol/min/mg protein

For `CN1CC[C@]23c4c5ccc(O)c4O[C@H]2C(=O)CC[C@H]3[C@H]1C5` [Hydromorphone, hydromorphone], which “Specific activity, Small Intestine” value [1] is on record?
The value was 40.0 ± 0.7 pmol/min/mg.

And the “Specific activity, Liver” value [2]?
Its value is 7.1 ± 1.1 pmol/min/mg.

And the “Specific activity, Lung” value [3]?
Its value is 6.3 ± 0.2 pmol/min/mg.

What about the “Efficiency of sulfation by HepG2 cells relative to the other three opioid drugs” value [4] of the same molecule?
The value was “more efficiently”.

What about the “Specific activity, Kidney” value [5] of the same molecule?
The value was 3.2 ± 0.5 pmol/min/mg.

From paper PMC4459640 (European journal of pharmaceutical sciences : official …, 2014)
